As usually defined, the Ki is the dissociation constant of the complex between target and ligand, obtained from inhibition or displacement. A high value points to a looser hold on the target.

The record followed here is patent US8592383B2, “Cycloalkyl-fused tetrahydroquinolines as CRTH2 receptor modulators” (Merck Sharp & Dohme Corp., priority 2011, dated 2013).

Read-outs that look alike come from different tables or passages of the source.

The target of experiment [1] is T1, hCRTH2 (Homo sapiens, UniProt Q9Y5Y4).
T1 sequence (Q9Y5Y4 1-395): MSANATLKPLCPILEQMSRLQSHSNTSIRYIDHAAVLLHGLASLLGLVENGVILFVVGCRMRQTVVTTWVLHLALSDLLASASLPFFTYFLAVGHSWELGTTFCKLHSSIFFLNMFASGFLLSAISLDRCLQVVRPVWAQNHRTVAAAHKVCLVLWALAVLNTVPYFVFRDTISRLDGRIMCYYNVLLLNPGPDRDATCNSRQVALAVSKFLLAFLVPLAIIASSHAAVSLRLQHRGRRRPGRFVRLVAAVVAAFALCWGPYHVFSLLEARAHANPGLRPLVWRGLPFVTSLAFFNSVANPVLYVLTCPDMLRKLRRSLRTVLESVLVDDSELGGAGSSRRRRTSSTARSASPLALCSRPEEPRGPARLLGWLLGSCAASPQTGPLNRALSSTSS
Kind of experiment: biochemical. The settings on record: Radioligand Binding Assay A, 3.0 nM [3H]PGD2, HEK-hCRTH2 membranes.

Experiment [2] deals with T1, hCRTH2. Set-up: expressed in transfected cells; host or cells: HEK (human embryonic kidney) cells expressing hCRTH2. Particulars: Radioligand Binding Assay B. How it is done:
The filters were then washed with 4 mL of the same buffer and residual radioligand bound to the filter was determined by liquid scintillation counting following equilibration in 25 μl Ultima Gold F™ (Unifilter) (Packard).

As for `O=C(O)CCC(=O)N(C1CC1)[C@@H]1c2cc(CO)ccc2N(C(=O)c2ccc(OC(F)(F)F)cc2)[C@@H]2CCC[C@@H]21` (single isomer, unassigned) [compound 55, 4-(Cyclopropyl((cis,cis,)-7-(hydroxymethyl)-4-(4-(trifluoromethoxy)benzoyl)-2,3,3a,4,9,9a-hexahydro-1H-cyclopenta[b]quinolin-9-yl)amino)-4-oxobutanoic acid], the affinity at hCRTH2 [1] corresponds to a Ki of 37.7 nM.
`O=C(O)CCC(=O)N(C1CC1)C1c2ccccc2N(C(=O)c2ccc(OC(F)(F)F)cc2)C2CCC21` (racemic) [compound 27, 4-{Cyclopropyl[cis,cis-3-{[4-(trifluoromethoxy)phenyl]carbonyl}-1,2,2a,3,8,8a-hexahydrocyclobuta[b]quinolin-8-yl]amino}-4-oxobutanoic acid]: the Ki was 7.7 nM at hCRTH2 [2] (0.7 nM [3H]PGD2, HEK-hCRTH2 membranes) and 5.1 to 20 nM at hCRTH2 [2] (Table B, rated A-D).
